Screens (PubChem BioAssay)
An excerpt weighted towards active compounds, which were near 2.8% of everything screened.
Yeast UUG start: alters start codon recognition fidelity in yeast; AID 602363; activity score, % at 18.7 µM; 350,000 tested, 0.13% active; S. cerevisiae UUG-firefly luciferase reporter, luminescence/redox ratio;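 active means replicate mean at a twofold rise or more, about +100% in these data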;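 further: firefly luciferase made from a UUG start codon reports start codon fidelity; reporter light over untreated wells divided by growth signal over untreated wells; some hits fall short of that in this replicate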
PglD DTNB: inhibitors of Campylobacter jejuni PglD acetyltransferase; purified PglD enzyme, DTNB colorimetric CoA detection; inhibition, % at 12.5 µM; 360,000 compounds, 0.098% hits; AID 602405; in the data active = inhibition above about 16%, passing the limit was not always enough; inconclusive = no clear call, values can overlap the other calls
esBAF inh: SWI/SNF esBAF complex inhibition; 350,000 compounds, 2% hits; AID 602393; mouse ES cells, Bmi1-luciferase knock-in reporter, 24 h; 100% = twice the neutral-well signal; reporter increase, % at 12.5 µM; in the data active = activation above about 40%; inconclusive = no clear call, values can overlap the other calls;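 also: 0% = median of the plate's neutral control wells and 100% = double that signal; a rise in the Bmi1 reporter signal indicates esBAF inhibition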
Wnt bcat act: Wnt/beta-catenin pathway activation; Wnt/beta-catenin reporter cell assay, activator, plate reader; activation, % at 9.35 µM; 300,000 compounds, 1.2% hits; AID 743398; in the data active = activation above about 30%, passing the limit was not always enough; inconclusive = no clear call, values can overlap the other calls;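 also: 0% = neutral control wells and 100% = positive control wells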
miR-122 sensor: inhibitors of miR-122 in Huh7 cells. 340,000 compounds, 0.3% hits. activation (reporter increase), % at 12.5 µM. Huh7 miR-122 Renilla luciferase sensor, 48 h; neutral wells = 0, positive control = 100. AID 602342;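 active = mean replicate activation score at least 90 and every replicate individually at or above 90; inconclusive = only one of the two criteria met; inactive = neither criterion met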;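 also: higher luciferase means less miR-122 activity so hits act as miR-122 inhibitors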
MITF act: increases MITF-driven TRPM1 promoter luciferase signal. activation, % at 12.5 µM. SK-MEL-5 TRPM1-promoter luciferase, 24 h; % of positive control, neutral wells = 0. 300,000 compounds, 0.75% hits;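 active = mean activation of at least 80% with every replicate also reaching 80%; inconclusive = mean reaches 80% but some replicate falls short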;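 also: 0% = neutral control wells and 100% = parthenolide positive control wells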
* hit, by the source's call; ? = inconclusive; / = no result; [ ] = remark or other dose.

1	CCCCOc1ccc2c(c1)C(=O)c1cc(O)ccc1-2
2	CCOc1ccc2c(c1)C(=O)c1cc(OCC(=O)O)ccc1-2
3	Cc1cc(C)n(/C(=C/N(C)C)C(=O)c2ccccc2)n1
4	Cc1cc(C)n(C(N)=NC(=O)c2ccccc2)n1
5	Cc1cc(C)n(C(=O)COc2ccc([N+](=O)[O-])cc2)n1

Assay by compound | 1 | 2 | 3 | 4 | 5
Yeast UUG start | / | -5 | / | -4 | -12
PglD DTNB | / | -1 | / | 2 | -1
esBAF inh | / | -5 | / | / | -2
Wnt bcat act | 14 | 9 | 0 | 43* | /
miR-122 sensor | / | -7 | 2 | / | -6
MITF act | 86* | -3 | 6 | / | -1

6	Cc1cc(C)n(C(N)=NC(=O)c2ccc([N+](=O)[O-])cc2)n1
7	CCC(=O)N[C@H]1CC[C@@H](CCn2cc(C3CC3)nn2)O[C@H]1CO
8	COc1ccc(N=NC2=C(O)CC(C)(C)CC2=O)cc1
9	CC1(C)CC(=O)C(N=Nc2ccc(Br)cc2)=C(O)C1
10	Clc1ccccc1-c1ncc2ccccn12

Assay by compound | 6 | 7 | 8 | 9 | 10
Yeast UUG start | 17 | 8 | -11 | -23 | /
PglD DTNB | -4 | 2 | 0 | -11 | /
esBAF inh | ? | -9 | 1 | / | /
Wnt bcat act | 10 | / | 26 | 70* | 36*
miR-122 sensor | -11 | / | -4 | -12 | /
MITF act | 95* | / | 69 | / | 3

11	Clc1ccc(-c2ncc3ccccn23)cc1
12	O=C(NC(=O)c1ccccc1)Nc1ccccc1
13	COc1ccccc1NC(=O)NC(N)=O
14	COc1ccccc1NC(=O)NC(=O)c1ccccc1
15	COc1ccc(NC(=O)NC(=O)c2ccccc2)cc1

Assay by compound | 11 | 12 | 13 | 14 | 15
Yeast UUG start | / | -37 | -7 | -10 | -8
PglD DTNB | / | 3 | 4 | -3 | 3
esBAF inh | / | -50 | -7 | 62* | 37
Wnt bcat act | 8 | 36* | 1 | 47* | 52*
miR-122 sensor | / | -3 | 0 | 4 | /
MITF act | 57 | 3 | -4 | / | /

Looked up by structure from the entries so far (three):
14	COc1ccccc1NC(=O)NC(=O)c1ccccc1
12	O=C(NC(=O)c1ccccc1)Nc1ccccc1
15	COc1ccc(NC(=O)NC(=O)c2ccccc2)cc1

Assay by compound | 14 | 12 | 15
Yeast UUG start | -10 | -37 | -8
PglD DTNB | -3 | 3 | 3
esBAF inh | 62* | -50 | 37
Wnt bcat act | 47* | 36* | 52*
miR-122 sensor | 4 | -3 | /
MITF act | / | 3 | /

Down the list, quoted from above:
Yeast UUG start, entries 11–15: /, -37, -7, -10, -8
Wnt bcat act, entries 11–15: 8, 36*, 1, 47*, 52*

Next section:
16	COc1ccc(C(=O)Nc2ccc(C(=O)c3ccccc3)cc2)cc1
17	O=C(C[C@@H]1C[C@@H]2c3cc(NC(=O)C4CCC4)ccc3O[C@@H]2[C@H](CO)O1)NCc1cccnc1
18	C[C@@H]1CN([C@H](C)CO)C(=O)c2cc(NS(=O)(=O)c3ccccc3)ccc2O[C@@H](C)CCCCO[C@H]1CN(C)C(=O)NC1CCCCC1
19	COc1ccc(-c2cc(C)no2)cc1S(=O)(=O)Nc1ccccc1
20	COc1ccc(-c2cc(C)no2)cc1S(=O)(=O)Nc1cccc(C)c1

Assay by compound | 16 | 17 | 18 | 19 | 20
Yeast UUG start | -16 | -11 | 4 | 4 | -11
PglD DTNB | -5 | 2 | -3 | 4 | 1
esBAF inh | / | -2 | -1 | 4 | -7
Wnt bcat act | -1 | / | / | -3 | 0
miR-122 sensor | -19 | 4[16.7 µM] | 2[16.7 µM] | 120* | 117*
MITF act | / | / | / | -21 | 12

21	COc1ccccc1NS(=O)(=O)c1cc(-c2cc(C)no2)ccc1OC
22	CCCNC(=O)C[C@H]1CC[C@@H]2[C@H](COc3ccc(NC(=O)Cc4cccs4)cc3C(=O)N2C)O1
23	COc1ccc(Nc2nc(-c3ccc(OC)cc3)c(CCC(=O)O)s2)cc1
24	COC(=O)CCc1sc(Nc2ccccc2)nc1-c1ccc(OC)cc1
25	O=C(C[C@@H]1C=C[C@@H](NC(=O)C2CC2)[C@H](CO)O1)NCc1ccncc1

Assay by compound | 21 | 22 | 23 | 24 | 25
Yeast UUG start | -7 | 0 | / | -30 | -6
PglD DTNB | 3 | -2 | / | -6 | 1
esBAF inh | -3 | 1 | -7 | / | -6
Wnt bcat act | -2 | / | 2 | 42* | /
miR-122 sensor | 53 | 10[16.7 µM] | 3 | / | /
MITF act | -7 | / | -2 | 61 | /

26	C[C@H](CO)N1C[C@H](C)[C@@H](CN(C)S(C)(=O)=O)Oc2c(NC(=O)c3nc4ccccc4s3)cccc2C1=O
27	NC(=S)c1ccc(OCCCc2ccccc2)cc1
28	Brc1csc(/C=N/Nc2nc3ccccc3s2)c1
29	C(=N\Nc1nc2ccccc2s1)/c1ccccn1
30	Brc1cc2c(cc1/C=N/Nc1nc3ccccc3s1)OCO2

Assay by compound | 26 | 27 | 28 | 29 | 30
Yeast UUG start | 12 | 12 | / | / | -5
PglD DTNB | 5 | 3 | / | / | -1
esBAF inh | 2 | 71* | / | / | 68*
Wnt bcat act | / | 37* | / | -12 | /
miR-122 sensor | 2[16.7 µM] | -2 | / | / | -5
MITF act | / | / | 84* | / | /

31	NC(N)=NC(=S)Nc1ccc(Cl)cc1
32	Fc1ccc(NC(=S)Nc2ccc(Cl)cc2)cc1
33	N/C(=N\C(=S)Nc1ccccc1)c1ccccc1
34	NC(=S)Nc1ccc2c(c1)OCO2
35	N/C(=N\C(=S)Nc1ccc2c(c1)OCO2)c1ccccc1

Assay by compound | 31 | 32 | 33 | 34 | 35
Yeast UUG start | -4 | / | -24 | / | -33
PglD DTNB | -13 | / | 3 | / | -1
esBAF inh | 47* | / | 82* | / | 64*
Wnt bcat act | 7 | 6 | 42* | 4 | 5
miR-122 sensor | -8 | / | -4 | 0 | -2
MITF act | 26 | -3 | ? | 3 | /

36	C/C(=N\NC(=O)c1nnn(-c2nonc2N)c1-c1ccccc1)c1cccnc1
37	C/C(=N\NC(=O)c1nnn(-c2nonc2N)c1CN(C)c1ccccc1)c1cccnc1
38	Cc1ccsc1-c1nc(-c2ccccc2)c(-c2ccccc2)[nH]1
39	Clc1cccc(-c2ccc(-c3nc4ccccn4c3NCc3ccccc3)cc2)c1
40	CCCCNc1c(-c2cccc(SC(C)CC)c2)nc2ccc(Cl)cn12 (centres undefined)

Assay by compound | 36 | 37 | 38 | 39 | 40
Yeast UUG start | -14 | -25 | -9 | -22 | -34
PglD DTNB | 1 | 8 | -4 | 0 | -2
esBAF inh | / | -6 | -3 | 50* | 10
Wnt bcat act | 0 | 34* | 53* | 31* | 11
miR-122 sensor | 5 | 0 | -3 | -11 | -3
MITF act | 8 | -1 | / | 19 | 9

41	CCC(C)Sc1ccc(-c2nc3ccc(Cl)cn3c2NCc2ccccc2)cc1 (centres undefined)
42	Cc1ccc(-c2ccc3c(c2)O[C@@H](CN(C)Cc2cncnc2)[C@@H](C)CN([C@@H](C)CO)S3(=O)=O)cc1
43	C[C@@H]1CN([C@@H](C)CO)C(=O)Cc2cc(NC(=O)Cc3ccccc3)ccc2O[C@@H]1CN(C)C(=O)Nc1ccccc1
44	COc1ccccc1S(=O)(=O)N1CC[C@@H]2[C@H]1c1cc(-c3ccccc3F)ccc1N(C)[C@H]2CO
45	CC(C)(C)N1C(=O)c2ccc(C(=O)Nc3nccs3)cc2C1=O

Assay by compound | 41 | 42 | 43 | 44 | 45
Yeast UUG start | -25 | 0 | -3 | 0 | -15
PglD DTNB | -6 | 2 | 5 | -1 | 8
esBAF inh | 50* | 5 | 0 | -3 | 54*
Wnt bcat act | ? | / | / | / | /
miR-122 sensor | -5 | -4[16.7 µM] | 2[16.7 µM] | 3[16.7 µM] | 0
MITF act | 84* | / | / | / | 140*

46	C#CCn1c(=NC(=O)c2ccc(Br)s2)sc2cccc(OC)c21
47	C[C@@H]1CN([C@@H](C)CO)C(=O)c2cc(NC(=O)Nc3cccc4ccccc34)ccc2O[C@H]1CN(C)S(=O)(=O)c1cn(C)cn1
48	O=C1NCC(=O)N2[C@@H]1C[C@@H](C(=O)NCc1ccc(F)cc1)[C@H]2c1ccc(O)cc1
49	CSc1nc(Cl)cc(Nc2ccc(O)cc2)n1
50	CCS(=O)(=O)Nc1ccc2c(c1)C(=O)N(C)C[C@@H](OC)[C@@H](C)CN(C(=O)C1CCC1)[C@H](C)CO2

Assay by compound | 46 | 47 | 48 | 49 | 50
Yeast UUG start | -12 | 3 | 35 | / | -7
PglD DTNB | -2 | -7 | 0 | / | 0
esBAF inh | 54* | 0 | / | / | -2
Wnt bcat act | 6 | / | / | 38* | /
miR-122 sensor | 1 | -2[16.7 µM] | / | / | /
MITF act | 73 | / | / | 20 | /

51	Cc1ccc(-n2nc3ccc(N)cc3n2)cc1C
52	Cc1ccc(-n2nc3ccc(N)cc3n2)cc1Cl
53	COC(=O)c1ccc(OCCOc2ccccc2)cc1
54	COC(=O)c1ccc(N=Nc2ccccc2)cc1
55	COC(=O)c1ccc(O)cc1

Assay by compound | 51 | 52 | 53 | 54 | 55
Yeast UUG start | 9 | -22 | -5 | 2 | -7
PglD DTNB | -2 | -2 | 2 | 2 | 1
esBAF inh | -19 | -12 | 46* | 76* | 2
Wnt bcat act | 31* | 10 | / | 12 | -3
miR-122 sensor | 1 | 10 | 7 | -8 | /
MITF act | -20 | 19 | 75 | 67 | -3
